102 compounds from PubChem BioAssay AID1556 (The Scripps Research Institute Molecular Screening Center, 2009) can be followed below.

Each structure is given as a SMILES string. Where “and” joins values, the source holds several entries; their conditions need not be identical. Equal entries are not always repeated. The entries are a selection whose mix differs from that of the whole data set. Calls of active or inactive are those of the source.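 The calls were made as follows: active = inhibition above the mean plus 3 SD of all compounds in the same screening run (cut at about 4.5% in these data); inactive = the rest.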

The test system of this assay is metallo-beta-lactamase IMP-1 (Pseudomonas aeruginosa). Put plainly: IMP-1 metallo-beta-lactamase inhibitors, primary screen, biochemical, epi-absorbance readout, Pseudomonas aeruginosa enzyme (AID 1556).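 Also: 0% = IMP-1 with DMSO and 100% = DMSO wells lacking enzyme.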 Conditions: purified IMP-1, nitrocefin hydrolysis, epi-absorbance fluorescence; at 5.6 µM; stronger effect = higher value.
In the case of `CN(C(=O)Cc1ccc(Cl)c(Cl)c1)[C@@H]1CCCC[C@H]1N1CCCC1`, the inhibition was inactive: -1.02%.

In the case of `CC(C)/C=N\N=C(\N)N[N+](=O)[O-]`, the inhibition is inactive: -1.89%.

Take `O=[As](O)(c1ccccc1Br)c1ccccc1Br`: the inhibition was inactive: -0.89%.

With `CC1(CBr)Cn2c(nc3ccccc3c2=O)S1` (configuration not stated), the inhibition was inactive: -1.63%.

With `Clc1n[nH]nc1-c1nn[nH][15n]1`, the inhibition is inactive: -2.04%.

Take `CC(C)(C)C(=O)NC(Sc1ncccn1)C(Cl)(Cl)Cl` (configuration not stated): the inhibition is inactive: -3.19%.

`CCC1=CC2Cc3nc4ccc(Cl)cc4c(N)c3C(C1)C2` (configuration not stated): the inhibition was inactive: -1.53%.

For `O=P1(Nc2ccccn2)COc2ccccc2OC1`, the inhibition was inactive: -4.39%.

Regarding `CCOP(=O)(NC(=NC(C)c1ccccc1)NC(C)c1ccccc1)OCC` (configuration not stated), the inhibition is inactive: -3.49%.

As for `CCOP(=O)(Nc1ccc(C)cn1)OCC`, the inhibition was inactive: -2.95%.

Turning to `Nc1cccc([As](=O)(O)c2ccccc2)c1`, the inhibition was inactive: -1.24%.

For the compound `O=P1(Nc2ccc(Br)cn2)COc2ccccc2OC1`, the inhibition was inactive: -1.81%.

Regarding `O=[As](O)(c1cccs1)c1cccs1`, the inhibition is inactive: -1.01%.

As for `Cc1ccc(OCC(=O)OC2CN3CCC2CC3)cc1` (configuration not stated), the inhibition is inactive: -2.57%.

On to `O=P1(Nc2ncccn2)COc2ccccc2OC1`, for which the inhibition is inactive: -2.84%.

For `CN(C)C1(CNC(=O)c2ccc(S(C)(=O)=O)cc2)CCCCC1`, the inhibition was inactive: -0.01%.

Regarding `O=C(/C=C/c1ccccc1)OC1CN2CCC1CC2` (configuration not stated), the inhibition is inactive: -2.02%.

With `Cc1nn(-c2ccccc2)c2c1P(=O)(N1CCOCC1)N(C)C(c1ccccc1)=N2` (configuration not stated), the inhibition is inactive: -4.21%.

For `Cc1ccc(C(=O)OC2CN3CCC2CC3)cc1` (configuration not stated), the inhibition was inactive: -0.79%.

For the compound `CC1CCC(C(C)C)C(OP(=O)(Nc2ccccn2)c2ccccc2)C1` (configuration not stated), the inhibition was inactive: -5.54%.

With `CCOP1(=S)c2c(C)nn(CCC#N)c2N=C(c2ccc(F)cc2)N1C` (configuration not stated), the inhibition is inactive: -0.28%.

As for `O=[N+]([O-])c1ccc2c(c1)nnn2O`, the inhibition is inactive: -3.33%.

Regarding `O=C(O)COc1ccc([As](=O)(O)O)cc1[N+](=O)[O-]`, the inhibition is inactive: -1.72%.

On to `Nc1ccccc1[As](=O)(O)c1ccccc1`, for which the inhibition was inactive: -0.65%.

`CCOP1(=S)c2c(C)nn(CCC#N)c2N=C(c2ccccc2F)N1C` (configuration not stated): the inhibition was inactive: -2.16%.

With `O=P(Nc1nccs1)(c1ccccc1)c1nc2ccccc2s1` (configuration not stated), the inhibition was inactive: -3.05%.

Turning to `O=P(Nc1nccs1)(Oc1ccccc1)Oc1ccccc1`, the inhibition is inactive: -2.48%.

For `CS(=O)(=O)c1cc([N+](=O)[O-])c2no[n+]([O-])c2c1`, the inhibition was inactive: -0.18%.

In the case of `COc1cc(C2NCCC3(OCCO3)C2(C)C)cc(OC)c1OC` (configuration not stated), the inhibition was inactive: -2.99%.

On to `CCOP(=O)(Nc1cccc2ccccc12)OCC`, for which the inhibition is inactive: -1.87%.

Take `Nc1cccc2c([As](=O)(O)O)cccc12`: the inhibition is inactive: 2.73%.

Take `Cc1ccc(NCCc2c([N+](=O)[O-])cc([N+](=O)[O-])cc2[N+](=O)[O-])cc1`: the inhibition was inactive: -4.17%.

In the case of `CCCOP(=S)(Nc1nc(N)cc(=O)[nH]1)OCCC`, the inhibition was inactive: -2.95%.

On to `O=[As](O)(c1cccc(O)c1)c1cccc(O)c1`, for which the inhibition was inactive: -1.78%.

As to `Cc1cccc(OCC(=O)OC2CN3CCC2CC3)c1` (configuration not stated), the inhibition was inactive: -4.22%.

Take `O=C(OC1CN2CCC1CC2)c1ccc(Cl)cc1` (configuration not stated): the inhibition is inactive: 0.75%.

For `COc1cc(C(=O)NCC2(N3CCOCC3)CCCCC2)cc(Cl)c1OC(C)C`, the inhibition is inactive: -2.92%.

Turning to `O=[As](O)(O)c1cccnc1`, the inhibition was inactive: -0.97%.

For `CS(=O)(=O)c1ccc(Cl)c(NC(=O)COC(=O)C(O)(c2ccccc2)c2ccccc2)c1`, the inhibition is inactive: -2.51%.

Turning to `COc1ccc(N/C(=N/P(=O)(N2CCOCC2)N2CCOCC2)N2CCOCC2)cc1`, the inhibition is inactive: -2.09%.

For `COc1ccc2nc(NP(=O)(c3ccccc3)c3ccccc3)sc2c1`, the inhibition was inactive: -2.72%.

As to `COc1cc(I)ccc1[As](=O)(O)O`, the inhibition is inactive: -1.54%.

Regarding `Cc1c2c(nc3ccccc13)SC(C(Cl)Cl)C2` (configuration not stated), the inhibition is inactive: -2.09%.

`O=C(OC1CN2CCC1CC2)C12CC3CC(CC(C3)C1)C2` (configuration not stated): the inhibition was inactive: -3.99%.

On to `Cc1cc(=O)[nH]c(N[N+](=O)[O-])n1`, for which the inhibition is inactive: -1.85%.

As to `CCN(CC)C(=S)SC(NC=O)C(Cl)(Cl)Cl` (configuration not stated), the inhibition was inactive: -2.75%.

Consider `CC(C)NC(=O)NP(=O)(Oc1ccccc1)Oc1ccccc1`, for which the inhibition was inactive: -3.49%.

As to `O=[N+]([O-])c1cc([N+](=O)[O-])c(-c2ccn[nH]2)s1`, the inhibition is inactive: -1.9%.

Take `ClCCSc1nnc(-c2cccnc2)o1`: the inhibition was inactive: -6.9%.

In the case of `CC(C)c1ccc(OP(=O)(Nc2ccccn2)Oc2ccccc2F)cc1` (configuration not stated), the inhibition is inactive: -3%.

With `Cc1ccc(OP(=O)(Nc2ccc([N+](=O)[O-])cn2)Oc2ccc(C)cc2)cc1`, the inhibition was inactive: -0.55%.

For `Cc1ccc2nc3c(c(C)c2c1)CC(C(Cl)Cl)S3` (configuration not stated), the inhibition was inactive: 0.15%.

Regarding `O=[As](O)(c1ccc(O)cc1)c1ccccc1O`, the inhibition is inactive: -1.21%.

As for `C[As](=O)(O)c1cccc(C(=O)O)c1`, the inhibition is inactive: -1.8%.

For the compound `Cc1cc(SC(NC=O)C(Cl)(Cl)Cl)ncn1` (configuration not stated), the inhibition was inactive: -2.58%.

For `O=P(Nc1ccccn1)(c1cccc2ccccc12)c1cccc2ccccc12`, the inhibition is inactive: -1.35%.

For the compound `O=[N+]([O-])c1ccc(Nc2ccc(Oc3ccc([N+](=O)[O-])cc3[N+](=O)[O-])cc2)c([N+](=O)[O-])c1`, the inhibition is inactive: -2.25%.

For `CCOC(=O)Nc1cccc([As](=O)(O)O)c1`, the inhibition was inactive: -1.56%.

For the compound `CCCCOc1ccc(C(=O)NCC2(N3CCCCC3)CCCCC2)cc1OC`, the inhibition is inactive: 1.21%.

Take `Cc1cc(SC(NC(=O)c2ccccc2)C(Cl)(Cl)Cl)nc(C(C)C)n1` (configuration not stated): the inhibition was inactive: -4.11%.

Consider `CCOC(=O)Nc1ccc([As](=O)(O)O)c(O)c1`, for which the inhibition was inactive: -2.38%.

In the case of `CCC(C)N(CC(C)C)C(=S)SC(NC(C)=O)C(Cl)(Cl)Cl` (configuration not stated), the inhibition is inactive: -7.34%.

Turning to `O=C(OC1CN2CCC1CC2)c1cccc([N+](=O)[O-])c1` (configuration not stated), the inhibition is inactive: -0.27%.

Regarding `CCOC(=O)c1ccc(NC(=O)C(C)(CCl)SC)cc1` (configuration not stated), the inhibition was inactive: -3.78%.

Consider `O=C(COc1ccccc1)OC1CN2CCC1CC2` (configuration not stated), for which the inhibition is inactive: -2.66%.

As for `O=C(Nc1ccncc1[N+](=O)[O-])c1ccc([N+](=O)[O-])cc1[N+](=O)[O-]`, the inhibition was inactive: -4.35%.

In the case of `COP1(=S)c2c(C)nn(CCC#N)c2N=C(c2ccc(F)cc2)N1C` (configuration not stated), the inhibition is inactive: -6.46%.

For the compound `CC1CCN(C(=O)Oc2c(Cl)cc(Cl)c3cccnc23)CC1`, the inhibition is inactive: -1.19%.

Turning to `CC(C)=N/N=C(\N)N[N+](=O)[O-]`, the inhibition was inactive: -0.74%.

As to `CN(C)C(=O)OCCc1n(C)cc[n+]1C`, the inhibition was inactive: -0.28%.

For the compound `CCN(/C(=N/P(=O)(N1CCOCC1)N1CCOCC1)N1CCOCC1)c1ccc(OC)cc1`, the inhibition is inactive: -3.24%.

For `Nc1ccc([As](=O)(O)c2ccc(N)cc2)cc1`, the inhibition is inactive: -0.25%.

As for `C[N+]1=C2C=CC=CC=C2SC12C([N+](=O)[O-])=CC([N+](=O)[O-])=C[C-]2[N+](=O)[O-]` (configuration not stated), the inhibition is inactive: -0.55%.

Regarding `Cc1ccc(NP(=O)(Oc2ccccc2)Oc2ccccc2)nc1`, the inhibition is inactive: -0.26%.

Take `O=[N+]([O-])c1cc([N+](=O)[O-])c(CCNc2ccccc2)c([N+](=O)[O-])c1`: the inhibition was inactive: -4.14%.

`CCc1nc2c(n1)c1c(non1O)c1c2no[n+]1[O-]`: the inhibition is inactive: -3.02%.

`CC(=O)N1C2C3N(C(C)=O)C1C1N(C(C)=O)C(C(N1C(C)=O)N3C(C)=O)N2C(C)=O`: the inhibition was inactive: -2.74%.

Regarding `O=[N+]([O-])c1cccc2n[nH]nc12`, the inhibition was inactive: -0.29%.

On to `COc1ccc(C2=NCC(CBr)S2)cc1` (configuration not stated), for which the inhibition was inactive: -3%.

With `O=C(O)CNc1ccc([As](=O)(O)O)cc1`, the inhibition was inactive: -2.4%.

For the compound `O=[N+]([O-])c1cccc(NC2=NCC(CBr)S2)c1` (configuration not stated), the inhibition is inactive: -4.58%.

Turning to `O=[N+]([O-])c1ncn(CCn2ncnc2[N+](=O)[O-])n1`, the inhibition was inactive: -2.12%.

On to `CC(C)(C)C(=O)NC(Sc1ccncn1)C(Cl)(Cl)Cl` (configuration not stated), for which the inhibition is inactive: -3.04%.

Consider `O=C(Nc1cc([As](=O)(O)O)ccc1O)c1ccccc1`, for which the inhibition was inactive: -0.94%.

Consider `Nc1cccc2ccc([As](=O)(O)O)cc12`, for which the inhibition is inactive: -1.58%.

`CCN(N=Nc1nonc1N)c1nonc1N`: the inhibition is inactive: -2.53%.

With `O=[N+]([O-])c1cc([N+](=O)[O-])c(CCN2CCOCC2)c([N+](=O)[O-])c1`, the inhibition was inactive: -0.76%.

For the compound `CCOP(=O)(Nc1ccccc1)OCC`, the inhibition was inactive: -2.94% and inactive: -0.95%.

Regarding `Cc1cc(SC(NC(=O)c2ccc(F)cc2)C(Cl)(Cl)Cl)ncn1` (configuration not stated), the inhibition is inactive: -2.94%.

For the compound `Cc1ccc(NP(=O)(Oc2ccccc2F)Oc2ccccc2F)nc1`, the inhibition was inactive: -2.7%.

As to `O=P(Nc1nc2ccc(Cl)cc2s1)(c1ccccc1)c1ccccc1`, the inhibition is inactive: -3.14%.

As for `O=C(O)c1ccccc1[As](=O)(O)O`, the inhibition is inactive: -1.83%.

For the compound `CC(=O)Nc1ccc([As](=O)(O)O)cc1`, the inhibition was inactive: -4.4%.

For the compound `Oc1ccccc1CNc1ccccn1`, the inhibition was inactive: -4.31%.

Regarding `Cc1c2non([O-])c-2c(C)[n+](=O)[n+]1[O-]`, the inhibition is inactive: -4.7%.

Take `O=C(NC(Sc1ccncn1)C(Cl)(Cl)Cl)c1ccccc1` (configuration not stated): the inhibition was inactive: -2.61%.

With `CC(C)CC(=O)NC(Sc1ccc(Cl)cc1)C(Cl)(Cl)Cl` (configuration not stated), the inhibition is inactive: -1.54%.

With `Nc1cc(N)c2nonc2c1[N+](=O)[O-]`, the inhibition is inactive: -4.06%.

For `Clc1ccc(Cl)c(NC2=NCC(CBr)S2)c1` (configuration not stated), the inhibition was inactive: -1.4%.

Turning to `CN1CCCC(OC(=O)C(c2ccccc2)c2ccccc2)C1` (configuration not stated), the inhibition is inactive: -3.09%.

As for `COc1ccccc1OP(=O)(Nc1ccc(C)cn1)Oc1ccccc1OC`, the inhibition is inactive: -0.5%.

Regarding `Cc1ccc(OP(=O)(Nc2nccs2)Oc2ccc(C)cc2)cc1`, the inhibition was inactive: -4.07%.
